These results are taken from patent US20100093645A1, “SMAC Peptidomimetics and the Uses Thereof” (priority 2004, published 2010).

Protein sequences, listed by entry. Tags and fused reporters are not part of them. Residues count along the entry.
UniProt P98170, 241-356: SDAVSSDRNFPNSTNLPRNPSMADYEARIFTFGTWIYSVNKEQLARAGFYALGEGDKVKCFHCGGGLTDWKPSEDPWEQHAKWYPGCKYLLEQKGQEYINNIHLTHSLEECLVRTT

The structures appear in SMILES notation. Several values for one entry are separate records, joined by “and”; a condition that tells them apart may be missing. Equal values may be shown once.

The target of the assay is human XIAP-BIR3 protein (residues 241-356) (Homo sapiens, UniProt P98170). The assay is described as follows: biochemical.

As usually defined, the Ki is the equilibrium dissociation constant of an inhibitor or competing ligand from its target. Lower therefore signals a stronger hold on the target.

As for `CC(C)[C@H](NC(=O)[C@H](C)N)C(=O)N1CCC[C@H]1C(=O)NC(c1ccccc1)c1ccccc1` [Compound 11], the Ki was 50 nM and 96 nM.

With `CC(C)[C@H](NC(=O)[C@H](C)N)C(=O)N1CCC[C@H]1C(=O)NCC(c1ccccc1)c1ccccc1` [CJ-459], the Ki stood at 1210 nM.
